Columns and labels:
His6-TEV-PPARγ-(234-505) = His6-TEV-PPARγ-(234-505) (Homo sapiens, UniProt P37231); assay: TR-FRET Assay to Measure Co-R Peptide Recruitment to PPARγ; conditions: read-out: TR-FRET i-Ag, Co-R peptide (SMRT-ID2) recruitment, top final concentration 20 μM
UM-UC-9 engineered cells = assay: Cell proliferation / short-term viability assay, CellTiter-Glo 144 h; conditions: read-out: CTGlo 144 h UMUC9.5, G150

Amino acid sequences for entries named in this document (tags omitted). Residues count along the entry.
UniProt P37231, 234-505 limits assumed: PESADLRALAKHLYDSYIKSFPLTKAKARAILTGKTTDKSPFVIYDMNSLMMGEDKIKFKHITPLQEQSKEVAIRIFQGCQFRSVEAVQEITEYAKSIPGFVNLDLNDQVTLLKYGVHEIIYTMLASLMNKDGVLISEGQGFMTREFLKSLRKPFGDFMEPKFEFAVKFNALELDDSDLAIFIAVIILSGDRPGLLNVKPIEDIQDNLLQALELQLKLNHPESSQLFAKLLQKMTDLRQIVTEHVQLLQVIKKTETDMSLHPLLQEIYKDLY

SMILES	AC50 (His6-TEV-PPARγ-(234-505)) [nM]	IC50 (UM-UC-9 engineered cells) [nM]
COc1cc(-c2cc(C(=O)N3CCC(C(=O)N[C@H]4CC[C@@](O)(C(F)(F)F)CC4)CC3C)n[nH]2)c(F)cn1 (single isomer, unassigned) [Example 401-B]	33.6	93.8
COc1cc(-c2cc(C(=O)N3CCC(C(=O)N[C@H]4CC[C@@](O)(C(F)(F)F)CC4)CC3C)n[nH]2)c(F)cn1 (single isomer, unassigned) [Example 401-C]	36.4	138
COc1cc(-c2cc(C(=O)N3CCC(C(=O)N[C@H]4CC[C@@](O)(C(F)(F)F)CC4)CC3C)n[nH]2)c(F)cn1 (single isomer, unassigned) [Example 401-D]	5.9	6.6
COc1cc(-c2cc(C(=O)N3CCC(C(=O)N[C@H]4CC[C@@](O)(C(F)(F)F)CC4)CC3C)n[nH]2)c(F)cn1 (single isomer, unassigned) [Example 401]	21.3	41.7
CCC1CC(C(=O)N[C@H]2CC[C@@](O)(C(F)(F)F)CC2)CCN1C(=O)c1cc(-c2cc(OC)ncc2F)[nH]n1 (single isomer, unassigned) [Example 403-A]	955	2000
CCC1CC(C(=O)N[C@H]2CC[C@@](O)(C(F)(F)F)CC2)CCN1C(=O)c1cc(-c2cc(OC)ncc2F)[nH]n1 (single isomer, unassigned) [Example 403-B]	777	1630
CCC1CC(C(=O)N[C@H]2CC[C@@](O)(C(F)(F)F)CC2)CCN1C(=O)c1cc(-c2cc(OC)ncc2F)[nH]n1 (single isomer, unassigned) [Example 403-C]	245	1240
CCC1CC(C(=O)N[C@H]2CC[C@@](O)(C(F)(F)F)CC2)CCN1C(=O)c1cc(-c2cc(OC)ncc2F)[nH]n1 (single isomer, unassigned) [Example 403-D]	27.3	66.7
Cc1cc(-c2cc(C(=O)N3CCC(C(=O)NC4CCC5(CC4)OCCC5(F)F)CC34CC4)n[nH]2)c(F)cn1 (single isomer, unassigned) [Example 405-A]	353	731
Cc1cc(-c2cc(C(=O)N3CCC(C(=O)NC4CCC5(CC4)OCCC5(F)F)CC34CC4)n[nH]2)c(F)cn1 (single isomer, unassigned) [Example 405-B]	503	442
Cc1cc(-c2cc(C(=O)N3CCC(C(=O)NC4CCC5(CC4)OCCC5(F)F)CC34CC4)n[nH]2)c(F)cn1 (single isomer, unassigned) [Example 405-C]	2.8	1.6
Cc1cc(-c2cc(C(=O)N3CCC(C(=O)NC4CCC5(CC4)OCCC5(F)F)CC34CC4)n[nH]2)c(F)cn1 (single isomer, unassigned) [Example 405-D]	48	99.5
Cc1cc(-c2cc(C(=O)N3CCC(C(=O)NC4CCC5(CC4)OCCC5(F)F)CC34CC4)n[nH]2)c(F)cn1 (single isomer, unassigned) [Example 405]	27.9	8.3
COc1cc(-c2cc(C(=O)N3CC[C@H](C(=O)NC4CCC5(CC4)NCC5(F)F)CC34CC4)n[nH]2)c(F)cn1 (single isomer, unassigned) [Example 410-A]	25.1	134
COc1cc(-c2cc(C(=O)N3CC[C@H](C(=O)NC4CCC5(CC4)NCC5(F)F)CC34CC4)n[nH]2)c(F)cn1 (single isomer, unassigned) [Example 410-B]	222	428
COc1cc(-c2cc(C(=O)N3CC[C@H](C(=O)NC(C)C45CCC(O)(CC4)CC5)CC34CC4)n[nH]2)c(F)cn1 (single isomer, unassigned) [Example 411-A]	18.8	64.9
COc1cc(-c2cc(C(=O)N3CC[C@H](C(=O)NC4COCC4N4CCOCC4)CC34CC4)n[nH]2)c(F)cn1 (single isomer, unassigned) [Example 414-A]	44.1	115
COc1cc(-c2cc(C(=O)N3CC[C@H](C(=O)NC4COCC4N4CCOCC4)CC34CC4)n[nH]2)c(F)cn1 (single isomer, unassigned) [Example 414-B]	≥ 20000	> 10000
COc1cc(-c2cc(C(=O)N3CC[C@H](C(=O)NC4CCCN(C5COC5)C4)CC34CC4)n[nH]2)c(F)cn1 (single isomer, unassigned) [Example 421-A]	216	437
COc1cc(-c2cc(C(=O)N3CC[C@H](C(=O)NC4CCCN(C5COC5)C4)CC34CC4)n[nH]2)c(F)cn1 (single isomer, unassigned) [Example 421-B]	390	359
COc1cc(-c2cc(C(=O)N3CC[C@H](C(=O)NC4CN(C)CCC4F)CC34CC4)n[nH]2)c(F)cn1 (single isomer, unassigned) [Example 422-A]	66.1	150
COc1cc(-c2cc(C(=O)N3CC[C@H](C(=O)NC4CN(C)CCC4F)CC34CC4)n[nH]2)c(F)cn1 (single isomer, unassigned) [Example 422-B]	38	165

SMILES	AC50 (His6-TEV-PPARγ-(234-505)) [nM]	IC50 (UM-UC-9 engineered cells) [nM]
COc1cc(-c2cc(C(=O)N3CC[C@H](C(=O)NC4CN(C)CCC4F)CC34CC4)n[nH]2)c(F)cn1 (single isomer, unassigned) [Example 422-C]	246	440
COc1cc(-c2cc(C(=O)N3CC[C@H](C(=O)NC4CN(C)CCC4F)CC34CC4)n[nH]2)c(F)cn1 (single isomer, unassigned) [Example 422-D]	128	415
COc1cc(-c2cc(C(=O)N3CC[C@H](C(=O)NC4CCC(C)N(C)C4)CC34CC4)n[nH]2)c(F)cn1 (single isomer, unassigned) [Example 423-A]	5000	5420
COc1cc(-c2cc(C(=O)N3CC[C@H](C(=O)NC4CCC(C)N(C)C4)CC34CC4)n[nH]2)c(F)cn1 (single isomer, unassigned) [Example 423-B]	124	174
COc1cc(-c2cc(C(=O)N3CC[C@H](C(=O)NC4CCC(C)N(C)C4)CC34CC4)n[nH]2)c(F)cn1 (single isomer, unassigned) [Example 423-C]	3040	4180
COc1cc(-c2cc(C(=O)N3CC[C@H](C(=O)NC4CCN(c5ccnc(C)n5)C4)CC34CC4)n[nH]2)c(F)cn1 (single isomer, unassigned) [Example 431-A]	111	595
COc1cc(-c2cc(C(=O)N3CC[C@H](C(=O)NC4CCN(c5ccnc(C)n5)C4)CC34CC4)n[nH]2)c(F)cn1 (single isomer, unassigned) [Example 431-B]	17.8	49.6
COc1cc(-c2cc(C(=O)N3CC[C@H](C(=O)NC4CN(CC5(C(F)(F)F)CC5)CC4(F)F)CC34CC4)n[nH]2)c(F)cn1 (single isomer, unassigned) [Example 435-A]	9.2	59.5
COc1cc(-c2cc(C(=O)N3CC[C@H](C(=O)NC4CN(CC5(C(F)(F)F)CC5)CC4(F)F)CC34CC4)n[nH]2)c(F)cn1 (single isomer, unassigned) [Example 435-B]	7.1	3.9
COc1cc(-c2cc(C(=O)N3CC[C@H](C(=O)NC4CCC(CC#N)(C(F)(F)F)CC4)CC34CC4)n[nH]2)c(F)cn1 (single isomer, unassigned) [Example 439-A]	46.6	61.8
COc1cc(-c2cc(C(=O)N3CC[C@H](C(=O)NC4CCC(CC#N)(C(F)(F)F)CC4)CC34CC4)n[nH]2)c(F)cn1 (single isomer, unassigned) [Example 439-B]	6.9	5.6
COc1cc(-c2cc(C(=O)N3CC[C@H](C(=O)NC4CCC(N5C[C@@H](C)N[C@@H](C)C5)CC4)CC34CC4)n[nH]2)c(F)cn1 (single isomer, unassigned) [Example 460-A]	800	> 10000
COc1cc(-c2cc(C(=O)N3CC[C@H](C(=O)NC4CCC(N5C[C@@H](C)N[C@@H](C)C5)CC4)CC34CC4)n[nH]2)c(F)cn1 (single isomer, unassigned) [Example 460-B]	1980	> 10000
COc1cc(-c2cc(C(=O)N3CC[C@H](C(=O)NC4CCN(C5COC56CCC6)C4)CC34CC4)n[nH]2)c(F)cn1 (single isomer, unassigned) [Example 464-A]	17.9	198
COc1cc(-c2cc(C(=O)N3CC[C@H](C(=O)NC4CCN(C5COC56CCC6)C4)CC34CC4)n[nH]2)c(F)cn1 (single isomer, unassigned) [Example 464-B]	11.8	124
COc1cc(-c2cc(C(=O)N3CC[C@H](C(=O)NC4CCN(C5COC56CCC6)C4)CC34CC4)n[nH]2)c(F)cn1 (single isomer, unassigned) [Example 464-C]	10.4	51.6
COc1cc(-c2cc(C(=O)N3CC[C@H](C(=O)Nc4cnn5ccc(C6CC6C#N)nc45)CC34CC4)n[nH]2)c(F)cn1 (single isomer, unassigned) [Example 466-A]	6.8	61
COc1cc(-c2cc(C(=O)N3CC[C@H](C(=O)Nc4cnn5ccc(C6CC6C#N)nc45)CC34CC4)n[nH]2)c(F)cn1 (single isomer, unassigned) [Example 466-B]	4	52.9
COc1cc(-c2cc(C(=O)N3CCC(C(=O)Nc4c(F)ccc5ccnn45)CC34CC4)n[nH]2)c(F)cn1 (single isomer, unassigned) [Example 468-A]	496	5030
COc1cc(-c2cc(C(=O)N3CCC(C(=O)Nc4c(F)ccc5ccnn45)CC34CC4)n[nH]2)c(F)cn1 (single isomer, unassigned) [Example 468-B]	11.1	60.8
COc1cc(-c2cc(C(=O)N3CC[C@H](C(=O)NCc4ncc(N5CCNC6CC65)cn4)CC34CC4)n[nH]2)c(F)cn1 (single isomer, unassigned) [Example 469-A]	92.6	7770
